From US10851110B2, “Heterocyclic inhibitors of PTPN11” (priority 2016, dated 2020)

System: phospho-ERK1/2
Assay: pERK AlphaScreen Protocol
Type: cell-based
Details: KYSE-520 cells, 2 hr, phospho-ERK1/2 AlphaScreen SureFire
Experimental: KYSE-520 cells (10 k cells/well) were grown in 384-well plate in 20 uL of medium (RPMI-1640, without phenol red, containing 10% FBS) at 37° C. with 5% CO2 overnight. DMSO (control) or increasing concentrations of compounds were diluted in medium, added to the 384-well plate (5 uL/well, final DMSO concentration of 1%), and cells were then incubated with compounds for 2 hr. Phospho-ERK levels were measured using phospho-ERK1/2 AlphaScreen SureFire (PerkinElmer, TGRESB10K) following manufacturer's recommendations. Dose-response curves were analyzed using IC50 regression curve fitting (GeneData Screener). Curves were normalized to a high control without inhibitor (DMSO only), and low control (1 μM selumetinib).

IC50: 200 nM
SMILES: N[C@@H]1CCCC12CCN(c1cnc3c(-c4ccncc4Cl)n[nH]c3n1)CC2 [Example 56, (R)-8-(3-(3-chloro-pyridin-4-yl)-1H-pyrazolo[3,4-b]-pyrazin-6-yl)-8-azaspiro[4.5]decan-1-amine]
